Source: patent publication US11249070B2, “Anti-cancer drug assessment method” (TOPPAN PRINTING CO., LTD., priority 2016, dated 2022)

Tests used:
HCT116 = assay: CNT with 5-FU with or without bevacizumab, 2D, spheroid, 3D (Example 5); assay type: cell-based, human; conditions: 5-FU 1 mM, bevacizumab 2 μg per well in the combination, 72 hours
[1] = tested on: patient-derived breast cancer cells CLTH/BC; conditions: 3D; Oxaliplatin 10 μg; bevacizumab 2 μg per well in the combination; 72 hours

Row | Structure (SMILES) | CNT (%) Average value (HCT116) | CNT (%) Average value [1]
1 | O=c1[nH]cc(F)c(=O)[nH]1 [5-FU] | 61.2% | –
2 | O=C1[O][Pt]2([NH][C@@H]3CCCC[C@H]3[NH]2)[O]C1=O [Oxaliplatin, oxaliplatin] | – | 69.4%
